# This is a selection; strong and weak results do not stand in their true shares. Some results for these compounds are left out of this collection, so the calls shown say nothing about other tests. Active and inactive are the calls of the source.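 How the source made its calls: active means B-score under library mean minus 4 SD, starting fluorescence ratio at most library mean plus 5 SD; inactive means the rest.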
# Chains of the proteins cited; added tags and fusions are not shown.
# UniProt O14649, whole entry: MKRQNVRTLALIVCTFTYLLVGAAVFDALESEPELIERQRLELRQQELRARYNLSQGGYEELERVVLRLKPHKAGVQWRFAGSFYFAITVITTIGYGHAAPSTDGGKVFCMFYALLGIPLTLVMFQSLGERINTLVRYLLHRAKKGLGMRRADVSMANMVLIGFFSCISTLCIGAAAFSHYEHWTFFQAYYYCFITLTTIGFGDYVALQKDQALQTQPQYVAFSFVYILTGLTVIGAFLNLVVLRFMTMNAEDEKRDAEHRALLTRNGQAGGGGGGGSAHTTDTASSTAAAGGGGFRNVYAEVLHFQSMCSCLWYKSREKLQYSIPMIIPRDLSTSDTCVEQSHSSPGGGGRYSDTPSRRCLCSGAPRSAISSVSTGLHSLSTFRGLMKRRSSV
# Target: Potassium channel subfamily K member 3 (Homo sapiens) (UniProt O14649)
# Assay: blockers of TASK1 two-pore potassium channel – CHO cells, FluxOR thallium flux, B-score, primary screen (AID 602410)
# Details: CHO-KCNK3 thallium flux, FluxOR fluorescence; at 10 µM
row,Structure (SMILES),outcome
1,CC(C)Oc1ccc(C(=O)NCC2(N(C)C)CCCCC2)cc1,inactive
2,O=C(OCCN1CCCC1)C(O)(c1ccccc1)c1ccccc1,inactive
3,CN(C)c1cccc(C(=O)NCC2(N(C)C)CCCCC2)c1,inactive
4,COc1ccc(Br)c(C(=O)NCC2(N3CCCCC3)CCCCC2)c1,inactive
5,O=C(OC1CN2CCC1CC2)C(CO)(c1ccccc1)c1ccccc1 (stereo not given),inactive
6,O=C(NCC1(N2CCCCC2)CCCCC1)c1cccc(Cl)c1,inactive
7,COc1cccc(C(=O)NCC2(N3CCCCC3)CCCCC2)c1,inactive
8,COc1ccc(Cl)cc1C(=O)NCC1(N(C)C)CCCCC1,inactive
9,COc1cc(C(=O)NCC2(N(C)C)CCCCC2)c([N+](=O)[O-])cc1OC,inactive
10,CN(C)C1(CNC(=O)c2ccc(Br)cc2)CCCCC1,inactive
11,COc1ccc(C(=O)NCC2(N(C)C)CCCCC2)cc1,inactive
12,CCN1CCCC(OC(=O)C2(O)c3ccccc3C=Cc3ccccc32)C1 (stereo not given),inactive
13,Cc1cc(C(=O)NCC2(N3CCCCC3)CCCCC2)ccc1[N+](=O)[O-],inactive
14,O=C(NCC1(N2CCCCC2)CCCCC1)c1cccc(Br)c1,inactive
15,C=CCN1CCN(CCOC(=O)C(O)(c2ccccc2)c2ccccc2)CC1,inactive
16,O=C(NCC1(N2CCCCC2)CCCCC1)c1cc(F)c(F)cc1Cl,inactive
17,Cc1ccccc1C(=O)NCC1(N2CCCCC2)CCCCC1,inactive
18,CN(C)c1ccc(C(=O)NCC2(N(C)C)CCCCC2)cc1,inactive
19,CN(C)C1CCCC1OC(=O)C(O)(c1ccccc1)c1ccccc1 (stereo not given),inactive
20,Cc1ccc(C(=O)NCC2(N3CCCCC3)CCCCC2)cc1,inactive
21,CCN(CC)CC(C)C(C)OC(=O)C(O)(c1ccccc1)c1ccccc1 (stereo not given),inactive
22,COc1cc(SC)ccc1C(=O)NCC1(N(C)C)CCCCC1,inactive
23,CC(C)N1C(=O)CC2(CCN(CCOC(=O)C(O)(c3ccccc3)c3ccccc3)CC2)C1=O,inactive
24,CN1[C@@H]2CC[C@H]1CC(OC(=O)C(O)(c1ccccc1)c1ccccc1)C2 (stereo not given in full),inactive
25,O=C(NCC1(N2CCCCC2)CCCCC1)c1cc([N+](=O)[O-])ccc1Cl,inactive
